# According to US20130317009A1 (priority 2012, published 2013):
# What was measured:
# rat = assay: Randall Selitto test in rats (carrageenan oedema, inflammatory pain); assay type: in vivo; details: applied alone
# male Sprague-Dawley rats = details: withdrawal threshold of ipsi-lateral hind paw, first 0.0316 μg/kg, second 1.0 mg/kg, combination 0.0316 μg/kg + 1.0 mg/kg, Mean ± SEM, n = 10
smiles,measurement,setting,value
CN(C)[C@]1(c2ccccc2)CC[C@]2(CC1)OCCc1c3cc(F)ccc3[nH]c12,ED50 (95% CI) first pharmacologically active ingredient,"rat; i.v., 15 min p. appl. (peak effect)",3.48 μg/kg
same,timepoint of peak effect,"rat; first i.v., second i.p., timepoint of first measurement",15 min p. appl.
same,% MPE (Maximum possible effect) 30 min.,male Sprague-Dawley rats; 30 min after i.v. administration,20.7 % MPE and 20.7 ± 12.4 % MPE
same,% MPE (Maximum possible effect) 60 min.,male Sprague-Dawley rats; 60 min after i.v. administration,8.2 ± 10.6 % MPE
same,% MPE (Maximum possible effect) 180 min.,male Sprague-Dawley rats; 180 min after i.v. administration,−1.3 ± 6.0 % MPE

# “And” between values parts separate entries of the source, which are not always exact repeats. Equal entries are not always repeated.
